Assays:
[1] = Effect of acid strength on SBA removal by neodecanoic acid and regenerated olefin; assay type: physicochemical; details: for Light Phase SBA / Regenerated Olefin C4=/SBA: ES 1.0, 1:1 v/v
[2] = Comparative runs: partitioning of SBOH and water into neodecanoic acid from aqueous sec-butanol free of sulfuric acid
[3] = Partitioning of alcohol into neodecanoic acid from sulfuric acid/alcohol feedstreams (Examples 14-21); details: for Light Phase H2O / Light Phase SBOH: AS 60%, 60° C.
[4] = Description: The liquids thus passed to the extraction unit were preheated each to a temperature of 60° C. The reciprocating plate column was provided with a hot water heating jacket maintained at 60° C. […] The liquids thereby accumulated were each analyzed by gas chromatography and nuclear magnetic resonance spectroscopy (NMR) for component identification.
[5] = Break time for forming liquid-liquid interface, neo-decanoic acid extract phase / sulfuric acid phase; details: 60° C.
[6] = Effect of solvent/feed ratio on selectivity of extraction (H2O/SBA in upper layer); details: 25° C., AS 56.7%, ES 0.5
[7] = Batch extraction of sec-butyl alcohol (SBA) from acid/alcohol feedstream by aliphatic acids; SBA in light phase; assay type: physicochemical; details: Table 9, vol:vol 1.0:1, AS 56.7%, ES 0.5
Text: Thereafter, the thus-formed acid/alcohol […] contacted with the selected amount of a carboxylic acid solvent of this invention, and the results thereby obtained are reported in the associated tables below.

[8] = Solubility of neodecanoic acid in SBOH extracts (heavy layer); details: 25° C.
[9] = Comparative Example I, 25° C., start SBOH 47.8 wt %
[10] = Comparative Example II, 25° C., start SBOH 7.3 wt %
[11] = Comparative Example III, 25° C., start SBOH 63.9 wt %
[12] = Comparative Example IV, 25° C., start SBOH 13.9 wt %
[13] = Comparative Example IX, 60° C., start SBOH 28.3 wt %
[14] = Comparative Example V, 60° C., start SBOH 45.3 wt %
[15] = Comparative Example VI, 60° C., start SBOH 7.4 wt %
[16] = Comparative Example VII, 60° C., start SBOH 61.7 wt %
[17] = Comparative Example VIII, 60° C., start SBOH 13.5 wt %
[18] = Example 14, ES 0.2, NDA/SBOH 15.6
[19] = Example 15, ES 0.2, NDA/SBOH 3.9
[20] = Example 16, ES 0.2, NDA/SBOH 7.9
[21] = Example 17, ES 0.2, NDA/SBOH 23.2
[22] = Example 18, ES 0.2, NDA/SBOH 4.7
[23] = Example 19, ES 1.0, NDA/SBOH 1.3
[24] = Example 20, ES 1.0, NDA/SBOH 2.6
[25] = Example 21, ES 1.0, NDA/SBOH 7.9

Substance: neodecanoic acid
- capacity for alcohol removal on decreasing sulfuric acid wt % ([1]; 25° C. and 60° C.): greatly increased
- Light Phase SBA ([1]; Run 11-1, 25 °C, AS 50%): 11.69 wt. %
- Regenerated Olefin C4=/SBA ([1]; Run 11-1, 25 °C, AS 50%): 0.003 wt:wt
- Light Phase SBA ([1]; Run 11-2, 25 °C, AS 60%): 4.57 wt. %
- Regenerated Olefin C4=/SBA ([1]; Run 11-2, 25 °C, AS 60%): 0.013 wt:wt
- Light Phase SBA ([1]; Run 11-3, 25 °C, AS 67.5%): 1.79 wt. %
- Regenerated Olefin C4=/SBA ([1]; Run 11-3, 25 °C, AS 67.5%): 0.165 wt:wt
- Light Phase SBA ([1]; Run 11-4, 60 °C, AS 50%): 13.40 wt. %
- Regenerated Olefin C4=/SBA ([1]; Run 11-4, 60 °C, AS 50%): 0.060 wt:wt
- Light Phase SBA ([1]; Run 11-5, 60 °C, AS 60%): 7.11 wt. %
- Regenerated Olefin C4=/SBA ([1]; Run 11-5, 60 °C, AS 60%): 0.049 wt:wt
- Light Phase SBA ([1]; Run 11-6, 60 °C, AS 67.5%): 3.55 wt. %
- Regenerated Olefin C4=/SBA ([1]; Run 11-6, 60 °C, AS 67.5%): 0.161 wt:wt
- regenerated olefin in the light phase, of the alcohol present in the feedstream ([1]; acid strength not greater than about 60% A.S.): less than 5 wt.%
- amount of butylene regenerated in the upper layer on increasing acid strength ([1]; particularly A.S. greater than about 60%): greatly increased amount of butylene regenerated
- Heavy Phase H2O [2, 9]: 94.56 wt %
- Heavy Phase SBOH [2, 9]: 5.44 wt %
- Light Phase H2O [2, 9]: 3.02 wt %
- Light Phase SBOH [2, 9]: 22.15 wt %
- Heavy Phase H2O [2, 10]: 99.06 wt %
- Heavy Phase SBOH [2, 10]: 0.94 wt %
- Light Phase H2O [2, 10]: 0.63 wt %
- Light Phase SBOH [2, 10]: 2.07 wt %
- Heavy Phase H2O [2, 11]: 95.09 wt %
- Heavy Phase SBOH [2, 11]: 4.91 wt %
- Light Phase H2O [2, 11]: 2.59 wt %
- Light Phase SBOH [2, 11]: 19.57 wt %
- Light Phase H2O [2, 12]: 0.59 wt %
- Light Phase SBOH [2, 12]: 2.01 wt %
- Heavy Phase H2O [2, 13]: 98.25 wt %
- Heavy Phase SBOH [2, 13]: 1.75 wt %
- Light Phase H2O [2, 13]: 2.74 wt %
- Light Phase SBOH [2, 13]: 10.53 wt %
- Heavy Phase H2O [2, 14]: 96.56 wt %
- Heavy Phase SBOH [2, 14]: 3.44 wt %
- Light Phase H2O [2, 14]: 2.45 wt %
- Light Phase SBOH [2, 14]: 20.65 wt %
- Heavy Phase H2O [2, 15]: 99.51 wt %
- Heavy Phase SBOH [2, 15]: 0.49 wt %
- Light Phase H2O [2, 15]: 1.14 wt %
- Light Phase SBOH [2, 15]: 2.16 wt %
- Heavy Phase H2O [2, 16]: 96.92 wt %
- Heavy Phase SBOH [2, 16]: 3.08 wt %
- Light Phase H2O [2, 16]: 3.33 wt %
- Light Phase SBOH [2, 16]: 19.72 wt %
- Heavy Phase H2O [2, 17]: 99.58 wt %
- Heavy Phase SBOH [2, 17]: 0.42 wt %
- Light Phase H2O [2, 17]: 0.95 wt %
- Light Phase SBOH [2, 17]: 1.89 wt %
- Light Phase H2O [3, 18]: .12 wt %
- Light Phase SBOH [3, 18]: 1.89 wt %
- Light Phase H2O [3, 19]: .10 wt %
- Light Phase SBOH [3, 19]: 2.49 wt %
- Light Phase H2O [3, 20]: .10 wt %
- Light Phase SBOH [3, 20]: 2.22 wt %
- Light Phase H2O [3, 21]: .09 wt %
- Light Phase SBOH [3, 21]: 1.65 wt %
- Light Phase H2O [3, 22]: .34 wt %
- Light Phase SBOH [3, 22]: 6.68 wt %
- Light Phase H2O [3, 23]: .66 wt %
- Light Phase SBOH [3, 23]: 6.87 wt %
- Light Phase H2O [3, 24]: .47 wt %
- Light Phase SBOH [3, 24]: 6.06 wt %
- Light Phase H2O [3, 25]: .38 wt %
- Light Phase SBOH [3, 25]: 5.15 wt %
- extent of removal of water from the alcohol-containing feeds ([3]; sec-butanol/sulfuric acid feeds versus aqueous sec-butanol alone): surprisingly far less
- Overall Partition Coefficients, Wt. Fract. (concentration in light phase / in heavy phase) [4]: 902.5
- acid strength of the heavy phase after extraction ([4]; Example 1, feedstream 55-percent acid strength, 60° C.): 60%
- Breaktime ([5]; Run 1-A, A.S. 55%, E.S. 0.51, feed 60, NDA 40 vol. %): 170 s
- Breaktime ([5]; Run 1-B, A.S. 55%, E.S. 0.51, feed 40, NDA 60 vol. %): 120 s
- Breaktime ([5]; Run 2-A, A.S. 55%, E.S. 0.97, feed 60, NDA 40 vol. %): 260 s
- Breaktime ([5]; Run 2-B, A.S. 55%, E.S. 0.97, feed 40, NDA 60 vol. %): 50 s
- Breaktime ([5]; Run 3-A, A.S. 55%, E.S. 1.13, feed 60, NDA 40 vol. %): 300 s
- Breaktime ([5]; Run 3-B, A.S. 55%, E.S. 1.13, feed 40, NDA 60 vol. %): 40 s
- Breaktime ([5]; Run 4-A, A.S. 60%, E.S. 0.51, feed 60, NDA 40 vol. %): 195 s
- Breaktime ([5]; Run 4-B, A.S. 60%, E.S. 0.51, feed 40, NDA 60 vol. %): 130 s
- Breaktime ([5]; Run 5-A, A.S. 60%, E.S. 0.97, feed 60, NDA 40 vol. %): 160 s
- Breaktime ([5]; Run 5-B, A.S. 60%, E.S. 0.97, feed 40, NDA 60 vol. %): 50 s
- Breaktime ([5]; Run 6-A, A.S. 60%, E.S. 1.13, feed 60, NDA 40 vol. %): 225 s
- Breaktime ([5]; Run 6-B, A.S. 60%, E.S. 1.13, feed 40, NDA 60 vol. %): 50 s
- selectivity of extraction [6]: high selectivity for alcohol extraction
- wt:wt. ratio H2O/SBA In Upper Layer ([6]; solvent/feed 0.4 (v/v)): 0.077 wt:wt
- wt:wt. ratio H2O/SBA In Upper Layer ([6]; solvent/feed 1.0 (v/v)): 0.030 wt:wt
- wt:wt. ratio H2O/SBA In Upper Layer ([6]; solvent/feed 1.5 (v/v)): 0.023 wt:wt
- wt:wt. ratio H2O/SBA In Upper Layer ([6]; solvent/feed 2.0 (v/v)): 0.038 wt:wt
- SBA in Light Phase ([7]; 25 °C): 4.04 wt. %
- SBA in Light Phase ([7]; 60 °C): 6.44 wt. %
- Neodecanoic Acid in Heavy Layer (solubility) ([8]; Sample 1, AS 56.7%, E.S. 0): Not detectable
- Neodecanoic Acid in Heavy Layer (solubility) ([8]; Sample 2, AS 56.7%, E.S. 0.1): < 10 ppm by weight
- Neodecanoic Acid in Heavy Layer (solubility) ([8]; Sample 3, AS 56.7%, E.S. 0.2): 17 ppm by weight
- Neodecanoic Acid in Heavy Layer (solubility) ([8]; Sample 4, AS 56.7%, E.S. 0.3): 157 ppm by weight
- Neodecanoic Acid in Heavy Layer (solubility) ([8]; Sample 5, AS 56.7%, E.S. 0.4): 364 ppm by weight
- Neodecanoic Acid in Heavy Layer (solubility) ([8]; Sample 6, AS 56.7%, E.S. 0.5): 571 ppm by weight
- Neodecanoic Acid in Heavy Layer (solubility) ([8]; Sample 7, AS 56.7%, E.S. 1.0): 4776 ppm by weight
- Neodecanoic Acid in Heavy Layer (solubility) ([8]; Sample 8, AS 67.0%, E.S. 0): 9 ppm by weight
- Neodecanoic Acid in Heavy Layer (solubility) ([8]; Sample 9, AS 67.0%, E.S. 0.2): 785 ppm by weight
- Neodecanoic Acid in Heavy Layer (solubility) ([8]; Sample 10, AS 67.0%, E.S. 0.6): 1855 ppm by weight
- Neodecanoic Acid in Heavy Layer (solubility) ([8]; Sample 11, AS 67.0%, E.S. 1.0): 9887 ppm by weight
- solubility of neo-decanoic acid in the heavy phase ([8]; at each acid strength level tested): increases as the ES value of the feed extract increases
